Measured values taken from ChEMBL document CHEMBL1138042, “2-[(4-phenylpiperazin-1-yl)methyl]imidazo(di)azines as selective D4-ligands. Induction of penile erection by 2-[4-(2-methoxyphenyl)piperazin-1-ylmethyl]imidazo[1,2-a]pyridine (PIP3EA), a potent and selective D4 partial agonist” (J Med Chem, 2006).

The chains behind the UniProt entries cited, without tags or fusion partners.
UniProt P14416, whole entry, looked up: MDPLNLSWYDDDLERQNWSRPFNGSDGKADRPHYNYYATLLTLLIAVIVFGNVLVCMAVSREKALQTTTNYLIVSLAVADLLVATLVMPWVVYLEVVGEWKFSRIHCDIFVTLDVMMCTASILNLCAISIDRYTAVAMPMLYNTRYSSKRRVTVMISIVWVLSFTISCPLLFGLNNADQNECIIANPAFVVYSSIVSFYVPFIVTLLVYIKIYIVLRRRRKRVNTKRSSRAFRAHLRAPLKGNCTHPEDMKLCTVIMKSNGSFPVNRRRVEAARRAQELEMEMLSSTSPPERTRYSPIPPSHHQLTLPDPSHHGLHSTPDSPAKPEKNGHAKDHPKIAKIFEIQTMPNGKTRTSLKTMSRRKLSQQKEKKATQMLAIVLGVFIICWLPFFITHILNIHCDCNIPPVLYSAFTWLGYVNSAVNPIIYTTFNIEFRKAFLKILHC
UniProt P21917, whole entry, looked up: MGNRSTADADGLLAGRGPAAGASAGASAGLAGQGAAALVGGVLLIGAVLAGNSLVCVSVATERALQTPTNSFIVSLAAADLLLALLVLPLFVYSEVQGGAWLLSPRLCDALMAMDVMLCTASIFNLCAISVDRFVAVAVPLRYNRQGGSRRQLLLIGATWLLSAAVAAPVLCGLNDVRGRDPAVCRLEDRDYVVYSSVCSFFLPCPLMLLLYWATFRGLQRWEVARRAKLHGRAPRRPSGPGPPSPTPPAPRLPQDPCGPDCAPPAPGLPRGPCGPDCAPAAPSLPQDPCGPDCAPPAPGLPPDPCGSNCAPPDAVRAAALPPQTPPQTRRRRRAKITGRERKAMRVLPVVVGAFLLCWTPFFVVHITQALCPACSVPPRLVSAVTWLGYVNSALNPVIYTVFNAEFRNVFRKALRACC
UniProt P35462, whole entry, looked up: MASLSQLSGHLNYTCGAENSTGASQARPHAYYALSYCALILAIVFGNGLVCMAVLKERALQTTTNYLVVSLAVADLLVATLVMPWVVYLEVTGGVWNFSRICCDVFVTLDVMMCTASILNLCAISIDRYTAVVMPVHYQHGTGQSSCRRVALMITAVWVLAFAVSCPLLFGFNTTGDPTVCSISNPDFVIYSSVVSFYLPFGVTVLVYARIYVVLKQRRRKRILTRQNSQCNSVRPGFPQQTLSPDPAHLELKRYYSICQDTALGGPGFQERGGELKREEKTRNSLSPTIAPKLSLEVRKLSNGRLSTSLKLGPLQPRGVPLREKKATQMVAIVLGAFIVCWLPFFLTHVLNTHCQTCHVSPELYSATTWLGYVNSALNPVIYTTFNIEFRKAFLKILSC

Assays:
[1] = target: T1, Dopamine receptors; D2 & D4 (Homo sapiens) (UniProt P14416+P21917); assay: Selectivity for human dopamine D4.4 receptor over dopamine D2(short) receptor; type: protein assay
[2] = target: Dopamine receptors; D3 & D4 (Homo sapiens) (UniProt P35462+P21917); assay: Selectivity for human dopamine D4.4 receptor over dopamine D3 receptor; type: protein assay
[3] = target: T1, Dopamine receptors; D2 & D4 (Homo sapiens); assay: Selectivity for human dopamine D4.4 receptor over dopamine D2(long) receptor; type: protein assay
[4] = Selectivity for human dopamine D4.4 receptor over porcine dopamine D1 receptor

SMILES | Selectivity ratio [1] | Selectivity ratio [2] | Selectivity ratio [3] | Selectivity ratio [4]
Fc1ccc(N2CCN(Cc3cn4nc(Cl)ccc4n3)CC2)cc1 | > 440 | 72 | > 440 | > 440
Fc1ccc(N2CCN(Cc3cn4cccnc4n3)CC2)cc1 | > 440 | > 440 | > 440 | > 440
Fc1ccc(N2CCN(Cc3cn4ccncc4n3)CC2)cc1 | > 440 | > 440 | > 440 | > 440
CN1CCN(c2ccc3nc(CN4CCN(c5ccc(Cl)c(Cl)c5)CC4)cn3n2)CC1 | > 440 | > 440 | > 440 | > 440
Clc1ccc(N2CCN(Cc3cn4nc(N5CCCCC5)ccc4n3)CC2)cc1Cl | > 440 | > 440 | > 440 | > 440
